Data taken from patent publication US5141962A, “Amine compounds” (Roussel Uclaf, priority 1989, dated 1992).

Experiments:
male rats = test: Antagonist effect vis-a-vis the diuretic activity of U-50488, action on diuresis; assay type: in vivo, rat; settings: male rats fasted 16 h; product of Example 1 20 mg/kg SC, U-50488 5 mg/kg, combination 5 + 20 mg/kg; urine collected for one hour
female mice = test: Antagonist effect vis-a-vis the analgesic activity of U-50488, hot plate test with mice; assay type: in vivo, mouse; settings: hot plate 56° C., product of Example 1 20 mg/kg SC, U-50488 5 mg/kg SC, combination 5 + 20

CN(C(=O)Cc1ccc(Cl)c(Cl)c1)[C@@H]1CCCC[C@H]1N1CCCC1 (relative stereo)
Volume of urine excreted in 1 hour, m ± esm (male rats): 0.0098 ± 0.0003 L/kg
Reaction time, m ± esm, 30 mn (female mice; 30 minutes after injection): 9.6 ± 1.1 s
Reaction time, m ± esm, 0 mn (female mice; initial time (0 mn)): 5.2 ± 0.1 s
